Laboratory results taken from patent US20030022283A1 (published 2003).

Protein sequences, listed by entry. Tags and fused reporters are not part of them. Lines headed by an entry give the natural chain unless they say otherwise; changes in a name come on top. Chains listed by the source or under a name are the forms on record and can include a tag or linker.
UniProt Q9ERC0, entry or part of it limits assumed, form in doubt: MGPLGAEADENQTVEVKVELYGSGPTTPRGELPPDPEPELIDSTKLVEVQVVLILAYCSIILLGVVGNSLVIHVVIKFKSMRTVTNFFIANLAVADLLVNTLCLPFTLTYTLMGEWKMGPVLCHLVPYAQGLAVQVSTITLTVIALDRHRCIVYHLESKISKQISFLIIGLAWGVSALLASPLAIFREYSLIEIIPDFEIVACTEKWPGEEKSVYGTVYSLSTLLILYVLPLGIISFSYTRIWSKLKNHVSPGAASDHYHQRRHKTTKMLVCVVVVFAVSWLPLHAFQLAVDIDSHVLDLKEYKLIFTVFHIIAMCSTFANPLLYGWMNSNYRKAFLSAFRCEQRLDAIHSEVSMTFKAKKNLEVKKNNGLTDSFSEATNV

T1: Human NPY Y5 receptor (human, UniProt Q15761 1-445)
T1 construct: also called HUMAN Clone; human Y5
T1 sequence: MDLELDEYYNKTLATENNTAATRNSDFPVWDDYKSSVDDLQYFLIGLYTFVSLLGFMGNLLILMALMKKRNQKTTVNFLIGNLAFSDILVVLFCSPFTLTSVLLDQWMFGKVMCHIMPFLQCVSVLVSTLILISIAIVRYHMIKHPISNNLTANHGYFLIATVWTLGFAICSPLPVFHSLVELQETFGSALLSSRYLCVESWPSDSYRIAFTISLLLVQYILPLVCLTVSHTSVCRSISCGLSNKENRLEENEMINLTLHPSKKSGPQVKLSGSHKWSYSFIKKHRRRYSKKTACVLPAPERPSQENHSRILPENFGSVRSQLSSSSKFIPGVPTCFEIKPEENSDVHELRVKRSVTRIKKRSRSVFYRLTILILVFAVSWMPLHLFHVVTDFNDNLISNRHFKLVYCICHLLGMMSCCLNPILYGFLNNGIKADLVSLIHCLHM

T2: Rat NPY Y5 receptor, Y861 clone (rat, UniProt Q63634 1-445)
T2 construct: also called RAT Y861 Clone; Rat Y5 (Y861)
T2 sequence: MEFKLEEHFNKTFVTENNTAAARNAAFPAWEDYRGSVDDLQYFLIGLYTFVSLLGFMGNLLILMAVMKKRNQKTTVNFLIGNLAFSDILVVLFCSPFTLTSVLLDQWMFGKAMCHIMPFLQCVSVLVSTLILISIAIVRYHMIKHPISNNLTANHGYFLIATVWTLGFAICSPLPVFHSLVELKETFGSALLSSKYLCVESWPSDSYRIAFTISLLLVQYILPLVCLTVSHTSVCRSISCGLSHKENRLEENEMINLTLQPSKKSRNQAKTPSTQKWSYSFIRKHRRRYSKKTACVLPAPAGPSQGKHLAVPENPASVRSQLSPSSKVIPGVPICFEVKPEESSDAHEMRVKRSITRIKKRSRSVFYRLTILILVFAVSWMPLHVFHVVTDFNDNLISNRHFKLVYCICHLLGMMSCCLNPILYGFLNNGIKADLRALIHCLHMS

T3: Rat NPY Y5 receptor, 6B clone (Y217.24.13.6B) (rat, UniProt Q63634 1-445)
T3 construct: 445 amino acid protein; assayed as membranes of transiently transfected COS-7 cells; Has proline where Y555/Y589/Y861 have leucine in the first transmembrane domain; also called RAT 6B Clone; Y5 clone
T3 sequence: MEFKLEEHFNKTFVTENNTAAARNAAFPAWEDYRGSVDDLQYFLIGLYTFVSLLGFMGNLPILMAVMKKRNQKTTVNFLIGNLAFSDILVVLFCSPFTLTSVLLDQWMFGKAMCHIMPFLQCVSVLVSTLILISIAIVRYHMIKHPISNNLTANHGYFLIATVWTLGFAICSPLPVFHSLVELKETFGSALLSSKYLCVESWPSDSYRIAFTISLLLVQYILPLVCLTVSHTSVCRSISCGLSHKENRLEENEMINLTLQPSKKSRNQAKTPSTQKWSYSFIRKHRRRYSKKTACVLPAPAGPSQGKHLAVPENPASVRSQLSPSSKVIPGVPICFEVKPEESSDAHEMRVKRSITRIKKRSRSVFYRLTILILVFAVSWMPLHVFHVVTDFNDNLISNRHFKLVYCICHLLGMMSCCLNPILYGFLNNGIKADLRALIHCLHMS


What was measured:
[1] = target: T1, Human NPY Y5 receptor; test: competition with [125I]PYY, membranes of stably transfected 293 cells
[2] = target: T2, Rat NPY Y5 receptor, Y861 clone; test: competition with [125I]PYY, membranes of stably transfected 293S cells
[3] = target: T3, Rat NPY Y5 receptor, 6B clone …; test: competition with [125I]PYY, membranes of transiently transfected COS-7 cells
Source text: (§1) All other peptides were purchased from either Peninsula (Belmont, Calif.) or Bachem (Torrance, Calif.).

[4] = target: T2, Rat NPY Y5 receptor, Y861 clone; test: as above
Source text: as §1

[5] = target: T4, Rat NPY Y2 receptor (clone) (rat, UniProt Q9ERC0 1-381); test: competition with [125I]PYY, rat Y2 clone
T4 construct: also called Rat Y2 (clone)

Row | Binder | Ki [1] [nM] | Ki [2] [nM] | Ki [3] [nM] | Ki [4] [nM] | IC50 [5] [nM]
1 | YYSALRHYINLITRQRY (peptide, UniProt P01303 48-64, looked up, range 20-36; also called r/h(20-36)NPY) [rat/human (20-36)NPY] | 429 | 108 | 330 | 587 | 
2 | SALRHYINLITRQRY (peptide, UniProt P01303 50-64, looked up, range 22-36; also called r/h(22-36)NPY) [rat/human (22-36)NPY] |  |  |  |  | 0.89
